Publication PMC9572811, “Synthesis of Novel Benzimidazole-Based Thiazole Derivatives as Multipotent Inhibitors of α-Amylase and α-Glucosidase: In Vitro Evaluation along with Molecular Docking Study” (Molecules, 2022)

By UniProt entry, the sequences of proteins in these tests, tags left out. Residues count along the entry.
UniProt P53341, whole entry: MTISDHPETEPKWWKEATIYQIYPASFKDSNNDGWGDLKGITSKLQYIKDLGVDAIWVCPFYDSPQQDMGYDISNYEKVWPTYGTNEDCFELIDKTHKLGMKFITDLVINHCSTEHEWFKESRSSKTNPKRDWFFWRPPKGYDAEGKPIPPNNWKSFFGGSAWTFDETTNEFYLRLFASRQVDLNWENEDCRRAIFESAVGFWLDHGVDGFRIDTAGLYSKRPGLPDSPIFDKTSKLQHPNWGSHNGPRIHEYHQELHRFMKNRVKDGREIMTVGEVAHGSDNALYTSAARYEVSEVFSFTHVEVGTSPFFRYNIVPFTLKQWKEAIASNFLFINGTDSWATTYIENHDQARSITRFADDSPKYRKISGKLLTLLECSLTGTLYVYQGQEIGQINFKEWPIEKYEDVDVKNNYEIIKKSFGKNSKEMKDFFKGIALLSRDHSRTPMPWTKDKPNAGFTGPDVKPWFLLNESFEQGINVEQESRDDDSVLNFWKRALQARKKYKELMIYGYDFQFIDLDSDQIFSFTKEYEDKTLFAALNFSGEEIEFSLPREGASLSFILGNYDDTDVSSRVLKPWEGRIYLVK
UniProt P00690, 16-511 limits assumed: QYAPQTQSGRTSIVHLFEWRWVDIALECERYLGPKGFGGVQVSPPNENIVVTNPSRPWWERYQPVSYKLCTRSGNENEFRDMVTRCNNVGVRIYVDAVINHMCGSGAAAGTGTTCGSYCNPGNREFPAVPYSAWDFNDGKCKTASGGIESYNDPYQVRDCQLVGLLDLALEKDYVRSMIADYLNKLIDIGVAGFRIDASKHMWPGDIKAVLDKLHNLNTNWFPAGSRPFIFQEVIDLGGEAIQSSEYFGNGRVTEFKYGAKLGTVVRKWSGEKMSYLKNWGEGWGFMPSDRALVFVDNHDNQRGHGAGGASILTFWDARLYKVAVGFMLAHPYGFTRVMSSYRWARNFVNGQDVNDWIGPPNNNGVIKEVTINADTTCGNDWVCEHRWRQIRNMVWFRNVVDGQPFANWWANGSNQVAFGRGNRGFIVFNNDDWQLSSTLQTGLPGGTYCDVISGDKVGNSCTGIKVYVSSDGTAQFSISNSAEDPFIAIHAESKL

What was measured:
α-glucosidase = α-glucosidase (Saccharomyces cerevisiae, UniProt P53341); test: α-glucosidase inhibition assay; assay type: biochemical; details: read-out: α-Glucosidase IC50; in vitro; p-nitrophenyl glucopyranoside substrate; mean ± SEM, n=3; acarbose as standard
α-amylase = α-amylase (Sus scrofa, UniProt P00690); test: α-amylase inhibition assay; details: read-out: α-Amylase IC50; in vitro; porcine pancreatic α-amylase, starch substrate; acarbose as standard

Row | SMILES | IC50 (α-glucosidase) | IC50 (α-amylase)
1 | O=[N+]([O-])c1ccc(/C(CSc2nc3ccccc3[nH]2)=N\Nc2nc(-c3cccc([N+](=O)[O-])c3)cs2)cc1 | 29.6 µM | 28.4 µM
2 | O=[N+]([O-])c1ccc(/C(CSc2nc3ccccc3[nH]2)=N\Nc2nc(-c3ccc(Br)cc3)cs2)cc1 | 25.8 µM | 18.5 µM
3 | O=[N+]([O-])c1ccc(/C(CSc2nc3ccccc3[nH]2)=N\Nc2nc(-c3ccc([N+](=O)[O-])cc3)cs2)cc1 | 19.6 µM | 16.4 µM
4 | Cc1ccc(-c2csc(N/N=C(/CSc3nc4ccccc4[nH]3)c3ccc([N+](=O)[O-])cc3)n2)cc1 | 25.9 µM | 24.4 µM
5 | O=[N+]([O-])c1ccc(/C(CSc2nc3ccccc3[nH]2)=N\Nc2nc(-c3cccc(F)c3)cs2)cc1 | 5.6 µM | 4.1 µM
6 | O=[N+]([O-])c1ccc(/C(CSc2nc3ccccc3[nH]2)=N\Nc2nc(-c3cccc(Br)c3)cs2)cc1 | 36.4 µM | 34.7 µM
7 | O=[N+]([O-])c1ccc(/C(CSc2nc3ccccc3[nH]2)=N\Nc2nc(-c3ccc(Cl)cc3)cs2)cc1 | 17.3 µM | 16.4 µM
8 | O=[N+]([O-])c1ccc(/C(CSc2nc3ccccc3[nH]2)=N\Nc2nc(-c3ccc(O)cc3)cs2)cc1 | 4.3 µM | 3.6 µM
